“Also recorded” adds a separate entry of the source.
What was measured:
[1] = test system: rats; details: oral, 15 μM in drinking water; cited from earlier work
[2] = Solubility of vanadate in tank water; type: physicochemical

sodium orthovanadate
toxicity in rats [1]: did not appear to be toxic; also recorded: no evidence that vanadate produced any irreversible changes
solubility in tank water [2]: readily soluble in tank water
